Paper PMC7553530 (Oncoimmunology, 2020)

Tested on: nivolumab
Experiment: SPR binding to immobilized nivolumab
Set-up: species or system human
Details: chip validation, 1 μM rhPD-1 injected 3 min at 10 μl/min, 25°C

rhPD-1: recombinant human PD-1 protein injected over the SPR chip for validation
SPR response upon rhPD-1 injection over nivolumab: 3740 RU
